Hits are enriched below; roughly 16% of the tested compounds scored in any of these assays.
DT40 TDP1 CPT: DT40-hTDP1 cell growth loss with CPT | chicken DT40 Tdp1-/-;hTDP1 cells + 20 nM CPT, ATP luminescence, 48 h | Potency, µM (highest dose often 46.2 µM), for inactives: at the top dose activity change, negative = growth inhibition, most hits filed as inhibitors | 420,000 tested, 12% active | AID 686979; note: potency is the fitted concentration of half-maximal effect; % is set by controls: 0 for no effect and ±100 for the full control effect; nearly all actives have a fitted effect of over 55% in size
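Chicken DT40 Tdp1-/- cells complemented with human TDP1, 400 cells/well, exposed to compounds plus 20 nM camptothecin for at least 48 h at 37 C; viability read as ATP content by CellTiter-Glo luminescence.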
DT40 TDP1 no CPT: qHTS for Inhibitors of human tyrosyl-DNA phosphodiesterase 1 (TDP1): qHTS in cells in absence of CPT; DT40 Tdp1-/- hTDP1 cells, no CPT, ATP luminescence, 48 h; Potency, µM (highest dose often 46.2 µM), without a hit: at the top dose activity change, negative = growth inhibition, usual class: inhibitors; 420,000 tested, 15% active; note: potency is the fitted concentration of half-maximal effect; % is set by controls: 0 for no effect and ±100 for the full control effect; nearly all actives have a fitted effect of over 55% in size
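Growth kinetics read by CellTiter-Glo luminescence after ≥48 hr at 37 °C. Cells: DT40 Tdp1-/- stably carrying human TDP1, 400 per well, compound exposure in the absence of CPT (DMSO vehicle).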
miR-21 reporter: miR-21 reporter, rising signal; HeLa miR-21 FLuc reporter, luciferase, 48 h; Potency, µM (top dose mostly 38.3 µM), without a hit: at the top dose reporter change, positive = more light; 340,000 tested, under 10 active; active = well fitted rising curve with a large enough effect; inconclusive = small, poorly fitted or top-dose-only effect; inactive = no such curve, though single readings can be large or run the other way;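 note: % of control where 0% means no effect; miR-21 action dims this reporter so a rising signal means less miR-21 action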
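HeLa miR-21-FLuc reporter line, endogenous miR-21; 2000 cells/well in DMEM/10% FBS; compound titration up to ~40uM final, 48 h, 37 degree Celsius; luciferase detection reagent, 15 min lysis, CCD luminescence.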
uPA generation: blocks generation of uPA at the cell surface; cell surface uPA generation assay, qHTS; Potency, µM (series often up to 38.3 µM), without a hit: at the highest dose activity change, negative = inhibition, usual class: inhibitors; 330,000 tested, 0.31% active; AID 540303; active = well fitted inhibition curve with a large enough effect; inconclusive = small, poorly fitted or top-dose-only effect; inactive = no such curve, though single readings can be large or run the other way; tested in mouse RAW 264.7 cells; note: potency is the fitted concentration of half-maximal effect; % is set by controls: 0 for no effect and ±100 for the full control effect; nearly all actives have a fitted effect of over 55% in size
TDP1 block: TDP1 (human) enzyme inhibition; Potency, µM (series often up to 130 µM), for the others: at the top dose activity change, negative = inhibition, hits mostly inhibitors; recombinant TDP1, AlphaScreen DNA substrate cleavage; Q9NUW8; 350,000 tested, 0.28% active; note: potency is the fitted concentration of half-maximal effect; % is set by controls: 0 for no effect and ±100 for the full control effect; nearly all actives have a fitted effect of over 40% in size
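E. coli-derived human Tdp1, 1 nM final. Cpd preinc 15 min RT; substrate 15 nM final, 5 min RT; AS bead mix 10 ug/ml final, 10 min RT. Signal loss = tyrosine-FITC cleavage. No-enzyme wells = max signal.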
* = called active by the depositor; ? = inconclusive; nt = no result; [ ] = another dose, or the depositor's remark. Unless noted, calls come from the whole dose curve; as a rule, active = well fitted curve in the direction sought with a large enough effect; inconclusive = small, poorly fitted or top-dose-only effect, or another doubt; inactive = no such curve, though single readings can be large; an effect the other way counts as inactive or inconclusive.

item	SMILES	DT40 TDP1 CPT	DT40 TDP1 no CPT	miR-21 reporter
1	CN(CC(=O)Nc1ncn[nH]1)S(=O)(=O)c1cc(Cl)ccc1Cl	12.0%	2.9%	-6.9%
2	CC(=O)c1cccc(NC(=O)c2ccc3nc(Cc4ccccc4)oc3c2)c1	?	?	21.4%
3	O=C(O)CCSc1nnc(CNc2ccc(Cl)cc2)n1Cc1ccccc1	10.7%	-7.1%	-10.5%
4	O=C(Cc1ccc(Cl)cc1)Nc1nc2ccccc2[nH]1	5.17µM*	2.06µM*	-20.1%
5	O=C(CSc1ccccc1)Nc1nc2ccccc2[nH]1	?	20.6µM*	-15.2%
6	CC(=O)Nc1nc2ccccc2[nH]1	17.3%	-6.7%	-1.7%
7	Cc1cc(OCC(=O)N[C@@H](Cc2ccccc2)c2nc3ccccc3[nH]2)ccc1Cl	-10.4%	?	-6.6%
8	O=C(Cc1ccccc1)N[C@@H](Cc1ccccc1)c1nc2ccccc2[nH]1	?	23.1µM*	-1.0%
9	O=C(Cc1ccc(Br)cc1)Nc1nc2ccccc2[nH]1	6.51µM*	2.31µM*	-29.8%
10	Cc1c(C(=O)O)sc2nc(C)n(C)c(=O)c12	?	-6.0%	1.8%

item	uPA generation	TDP1 block
1	6.8%	3.2%
2	nt	-0.6%
3	-4.1%	2.5%
4	0.8%	6.8%
5	-17.1%	2.7%
6	53.4%	5.0%
7	1.7%	-0.6%
8	11.9%	0.0%
9	-1.8%	2.7%
10	7.1%	0.0%

Continued.
item	SMILES	DT40 TDP1 CPT	DT40 TDP1 no CPT	miR-21 reporter
11	COc1ccc(OC)c(C(c2nnnn2CC2CCCO2)N2CCN(C)CC2)c1 (centres undefined)	-1.9%	-2.3%	-9.0%
12	O=C1N=C(C=c2ccc(=Cc3[nH]c(=O)[nH]c3O)cc2)C(=O)N1	nt	nt	-4.7%
13	CCNc1nc2ccccc2[nH]1	0.7%	-20.8%	-4.7%
14	O=C(CSc1nc2ccccc2[nH]1)Nc1ccc(F)cc1	-11.7%	2.1%	-16.5%
15	CCc1ccccc1Nc1nc2ccccc2[nH]1	?	14.6µM*	nt
16	O=C(Cc1ccccc1)Nc1nc2ccccc2[nH]1	13µM*	7.31µM*	-27.8%
17	CC(=O)Nc1cccc(CCc2nc3ccccc3[nH]2)c1	?	18.4µM*	-28.8%
18	O=C(CSc1ccc(Cl)cc1)Nc1ccc(-c2nc3ccccc3[nH]2)cc1	11.6µM*	8.2µM*	-11.1%
19	O=C(Cc1c[nH]c2ccccc12)Nc1nc2ccccc2[nH]1	-13.3%	-18.0%	-32.0%
20	COc1ccc(NC(=O)CC2C(=O)N(c3ccc(F)cc3)C(=O)N2Cc2ccc3c(c2)OCO3)cc1 (centres undefined)	-18.2%	?	6.9%

item	uPA generation	TDP1 block
11	9.1%	-4.8%
12	nt	-14.9%
13	5.8%	2.3%
14	2.2%	3.9%
15	?	nt
16	7.6%	2.9%
17	-6.5%	nt
18	1.9%	-5.3%
19	2.4%	8.3%
20	nt	9.0%

Other compounds.
item	SMILES	DT40 TDP1 CPT	DT40 TDP1 no CPT	miR-21 reporter
21	O=C1NC(=O)C(CC(=O)N(Cc2cccs2)C2(C(=O)NC3CCCCC3)CCCCC2)N1 (centres undefined)	?	-110.1%	-3.5%
22	Cc1ccc(Sc2cc(Cl)nc(N)n2)cc1	-20.4%	-11.4%	-13.4%
23	CCOC(=O)c1[nH]c(C)c(CCC(=O)Nc2ccc(N(CC)CC)cc2C)c1C	23.1µM*	20.6µM*	7.2%
24	CCOC(=O)c1[nH]c(C)c(CCC(=O)Nc2ccccc2C(=O)OC)c1C	13µM*	16.4µM*	21.8%
25	CCOC(=O)c1[nH]c(C)c(CCC(=O)Nc2ccccc2OCC)c1C	?	16.4µM*	23.1%
26	CCOC(=O)c1[nH]c(C)c(CCC(=O)NCc2ccccc2Cl)c1C	?	?	-6.4%
27	CCOC(=O)c1[nH]c(C)c(CCC(=O)Nc2ccc(Br)c(C)c2)c1C	?	?	-9.2%
28	O=C(C1=C[C@@H](c2ccc(Br)cc2)C[C@@H](OCCCCO)O1)N1CCN(Cc2ccccc2)CC1	6.51µM*	5.8µM*	26.5%
29	O=C(C1=C[C@H](C2CCCCC2)C[C@H](OCCCCO)O1)N1CCN(Cc2ccc3c(c2)OCO3)CC1	11.6µM*	18.4µM*	7.2%
30	O=C(C1=C[C@H](c2ccc3c(c2)OCO3)C[C@H](OCCCCO)O1)N1CCN(Cc2ccc3c(c2)OCO3)CC1	?	18.4µM*	11.6%

item	uPA generation	TDP1 block
21	-5.9%	-1.1%
22	0.7%	2.0%
23	nt	-8.1%
24	nt	10.8%
25	nt	5.4%
26	nt	5.4%
27	nt	5.4%
28	?	6.4%
29	-29.5%	2.6%
30	-0.9%	3.8%

(listing goes on)
item	SMILES	DT40 TDP1 CPT	DT40 TDP1 no CPT	miR-21 reporter
31	O=C(C1=C[C@@H](c2ccccc2)C[C@@H](OCCCCO)O1)N1CCN(Cc2ccc3c(c2)OCO3)CC1	?	?	1.2%
32	O=C(C1=C[C@@H](c2ccc3c(c2)OCO3)C[C@@H](OCCCCO)O1)N1CCN(Cc2ccc3c(c2)OCO3)CC1	?	?	-0.5%
33	O=C(C1=C[C@H](c2ccc3c(c2)OCO3)C[C@H](OCCCCO)O1)N1CCN(Cc2ccccc2)CC1	?	?	-4.0%
34	NCCOc1cnn(-c2ccccc2Cl)c(=O)c1Cl	-1.1%	-3.2%	-10.1%
35	COc1cccc(C2CC(c3cccs3)=NN2C(=O)CSc2nc3ccccc3s2)c1OC (centres undefined)	14.6µM*	13µM*	26.9%
36	COc1cccc(C2CC(c3cccs3)=NN2C(=O)CSc2nc3c(cnn3-c3ccc(F)cc3)c(=O)[nH]2)c1OC (centres undefined)	23.1µM*	23.1µM*	-2.1%
37	CCCCn1c(N)c(N(CC)C(=O)c2ccco2)c(=O)[nH]c1=O	25.2%	-2.4%	nt
38	COc1ccc(C(=O)C(C)[n+]2ccc(-c3nnc4n3CCCCC4)cc2)cc1 (centres undefined)	-6.2%	-2.7%	-7.2%
39	c1ccc(Nc2ccnc(Nc3ccccc3)n2)cc1	?	20.6µM*	-11.4%
40	COc1ccc(Nc2ccc(OC)cc2)cc1	-14.6%	-4.1%	-28.6%

item	uPA generation	TDP1 block
31	6.2%	2.6%
32	8.1%	5.1%
33	-4.0%	2.6%
34	1.5%	2.5%
35	0.0%	-2.6%
36	7.2%	2.7%
37	2.2%	0.2%
38	1.5%	2.6%
39	-11.9%	2.8%
40	-4.9%	8.3%

(cont.)
item	SMILES	DT40 TDP1 CPT	DT40 TDP1 no CPT	miR-21 reporter
41	COc1ccc(Nc2nc(NN)nc(Nc3ccc(OC)cc3)n2)cc1	?	13µM*	9.2%
42	NNc1nc(Nc2ccccc2)nc(Nc2ccccc2)n1	16.4µM*	?	-1.6%
43	COc1ccc(OC)c(-c2ccnc(-n3ncc(C(=O)N(C)CCc4ccccn4)c3C)n2)c1	-10.0%[9.04 µM]	-13.5%	nt
44	Cc1cccc(NC(=O)c2ccccc2C(=O)Nc2cccc(C)c2)c1	-1.1%	-15.7%	nt
45	Cc1ccc(CN(Cc2ccco2)c2cnc(S(C)(=O)=O)nc2C(=O)Nc2ccccc2Br)o1	9.2µM*	8.2µM*	0.3%
46	Cc1cccc(C)c1NC(=O)c1nc(S(C)(=O)=O)ncc1N(Cc1ccc(F)cc1)Cc1ccco1	?	?	1.7%
47	Cc1ccccc1NC(=O)c1nc(S(C)(=O)=O)ncc1N(Cc1ccco1)Cc1sccc1C	16.4µM*	20.6µM*	8.1%

item	uPA generation	TDP1 block
41	2.2%	nt
42	-3.8%	-2.5%
43	nt	nt
44	-4.4%	nt
45	nt	1.6%
46	nt	1.6%
47	nt	2.6%

Complete entries as entered above. Screens in order: DT40 TDP1 CPT	DT40 TDP1 no CPT	miR-21 reporter	uPA generation	TDP1 block
`COc1cccc(C2CC(c3cccs3)=NN2C(=O)CSc2nc3ccccc3s2)c1OC` (centres undefined) reads 14.6µM*	13µM*	26.9%	0.0%	-2.6%
`NNc1nc(Nc2ccccc2)nc(Nc2ccccc2)n1` reads 16.4µM*	?	-1.6%	-3.8%	-2.5%
`CCOC(=O)c1[nH]c(C)c(CCC(=O)Nc2ccc(N(CC)CC)cc2C)c1C` reads 23.1µM*	20.6µM*	7.2%	nt	-8.1%
`Cc1ccc(Sc2cc(Cl)nc(N)n2)cc1` reads -20.4%	-11.4%	-13.4%	0.7%	2.0%
`O=C(C1=C[C@@H](c2ccc3c(c2)OCO3)C[C@@H](OCCCCO)O1)N1CCN(Cc2ccc3c(c2)OCO3)CC1` reads ?	?	-0.5%	8.1%	5.1%
